Binding of CDR-mutated scFvs to a peptide of the spike HR2 region

The measurements come from Li et al. 2023 (doi:10.1038/s41467-023-39022-2) through the FLAb antibody collection.

Binding partner: SARS-CoV-2 spike HR2 peptide, sequence PDVDLGDISGINAS.

The variants keep the light chain, the linker and the frameworks of Ab-14 (scFv order VH, a 15-residue (Gly4Ser)3 linker, VL).
VH: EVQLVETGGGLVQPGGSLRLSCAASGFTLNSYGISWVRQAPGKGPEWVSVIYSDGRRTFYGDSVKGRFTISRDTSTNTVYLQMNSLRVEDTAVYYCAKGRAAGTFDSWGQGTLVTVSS
VL: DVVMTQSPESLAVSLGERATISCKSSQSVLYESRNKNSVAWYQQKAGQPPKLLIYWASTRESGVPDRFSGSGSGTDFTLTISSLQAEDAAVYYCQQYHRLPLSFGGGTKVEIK

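The starting antibody came from a phage panning campaign against this peptide. Designed CDR sequences, proposed from the first random library and measured here. Their group label is 14H_En_Gibbs (En: ensemble of fine-tuned language models; Gibbs: Gibbs sampling). The scFvs were displayed on barcoded MATa yeast, the peptide on MATalpha yeast. Pairs that bind mate more often; barcode pairs of the diploids are counted by sequencing. Scores were corrected for input abundance and mapped to Kd with protein pairs of known affinity run in the same pool. Each pool was mated in six replicate cultures.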

Variants are written as CDR1, CDR2 and CDR3 of the heavy chain (limits as in the source). Parent: GFTLNSYGIS, VIYSDGRRTFYGDSVK, GRAAGTFDS.
Affinities are written as log10 Kd with Kd in nM; a lower number is a better binder.
The mean shown is taken over the replicates in which the pair was detected.
Where no diploid with the target was found in that replicate, the entry reads "nd": below detection, most likely a poor binder, though not proof of it.
Values of this round are not directly comparable with the first-round values of the same sequences.

CDR-H1,CDR-H2,CDR-H3,log10 Kd (nM) by replicate,"log10 Kd (nM), mean",signal with controls
GDKLEDYGIS,VIYADGRRSAYVDAVK,GEYAGYFQV,nd / nd / nd / nd / nd / nd,nd,0 of 18
GFDLDEYGIS,VIYADGRRSAYHDSVK,GQLGGVSFV,-0.48 / -0.40 / -0.49 / -0.19 / -0.53 / -0.70,-0.47,0 of 18
GFDIEDYGIS,VIYADGKRSAYSNSFK,GLMAGNMMV,nd / nd / nd / nd / nd / nd,nd,2 of 18 (1.45)
GESLKEYGIS,VIYADGMRNAYASKVK,GKVSGVFNI,nd / nd / nd / nd / nd / nd,nd,0 of 18
GFDIEEYGIS,VIYADGDRANYDQKVK,GTIAGTLDM,0.53 / 0.64 / 0.70 / 0.47 / 0.43 / 0.68,0.58,0 of 18
GFQLDEYGIS,VIYADGSRTAYADSVK,GKYKFSLVV,nd / nd / nd / nd / nd / nd,nd,0 of 18
GFDLNEYGIS,VIYADGHRSFFTDTVK,GQQAGIFNV,0.38 / 0.80 / 0.35 / 0.88 / 0.49 / 0.55,0.58,0 of 18
GFSLGEYGIS,VIYADGERTNYVSNFK,GVHAGTFDL,nd / nd / nd / nd / nd / nd,nd,0 of 18
GFDLQELGIS,VIYADGTREAYSEKVK,GQLAGYFMF,nd / nd / nd / nd / nd / nd,nd,0 of 18
GDGLLEYGIS,VIYADGMRESYAENVK,GQTGGTFVL,nd / nd / nd / nd / nd / nd,nd,0 of 18
GQDLNEYGIS,VIYADGLRTAYSNNFK,GVQAGFDQY,nd / nd / nd / nd / nd / nd,nd,0 of 18
GFALNEYGIS,VIYADGSRSAYTESVK,GVHNIDVNV,nd / nd / nd / nd / nd / nd,nd,0 of 18
EFDLNEYGIS,VIYADGHRTFYAEHVK,GTNSGVFDT,nd / nd / nd / nd / nd / 2.14,2.14,0 of 18
GFDINEYGIS,VIYADGIRTSYQNKVK,GRSGGIINV,nd / nd / nd / nd / nd / nd,nd,0 of 18
GDILEEYGIS,VIYADGMRTYYEPSVK,GNVNGVFFI,nd / nd / nd / nd / nd / nd,nd,0 of 18
GMDLEEYGIS,VIYADGMRTYAVDSVK,GDQGGTLDY,nd / nd / nd / nd / nd / nd,nd,0 of 18
GFGLDEYGIS,VIYADGMRSAYANSVK,GSHAGGIVW,nd / nd / nd / nd / nd / nd,nd,0 of 18
GDSLNEYGIS,VIYADGRRSFYTDNVK,GHAGGIFMS,nd / nd / 1.05 / nd / nd / nd,1.05,0 of 18
GYDLNEYGIS,VIYADGRRAAYIDDVK,GHVNDHFAV,nd / nd / nd / nd / nd / nd,nd,0 of 18
GFDLEDYGIS,VIYADGKRSFVSNNVK,GQQGNFFSM,nd / nd / nd / 2.53 / nd / nd,2.53,1 of 18 (1.79)
GYSLEEYGIS,VIYADGRRTAYADNVK,GMSGADGMF,nd / nd / nd / 3.78 / nd / nd,3.78,0 of 18
GMSLDEYGIS,VIYADGVRCAYANTVK,GELAGFFML,nd / nd / nd / nd / nd / nd,nd,0 of 18
GQDLAEYGIS,VIYADGKRTYYAQDVK,GTNVGQGGF,nd / nd / nd / nd / nd / nd,nd,0 of 18
GFDVEEYGIS,VIYADGRRSSYSQSVK,GHYSGTIYV,nd / nd / nd / nd / nd / nd,nd,0 of 18
GYSLDDYGIS,VIYADGKRTSYAESVK,GNNGGSFMN,nd / nd / nd / nd / nd / nd,nd,0 of 18
GYDLDDYGIS,VIYADGKRTSYAEDVK,GNIGGSLMN,nd / nd / nd / nd / nd / nd,nd,0 of 18
GFGLLEYGIS,VIYADGMRLSYAENVK,GQEGQLFDL,nd / nd / nd / nd / nd / nd,nd,0 of 18
GKSLDEYGIS,VIYADGMRKEYTDSVK,GQFDDAMDL,nd / nd / nd / nd / nd / nd,nd,0 of 18
GYDIEEMGIS,VIYADGKRNAYANSVK,GKWAGAFVD,nd / nd / nd / nd / nd / nd,nd,0 of 18
GNDLDEFGIS,VIYADGSRASYIDKVK,GLNGGQLIV,nd / nd / nd / nd / nd / nd,nd,0 of 18
GEDLMEYGIS,VIYADGERRSYANSVK,GGVSGNFSS,nd / nd / nd / nd / nd / nd,nd,0 of 18
GFNLAEYGIS,VIYADGSRVAYADSVK,GLNGKIGDQ,nd / nd / nd / nd / nd / nd,nd,0 of 18
GFDLNEYGIS,VIYADGVRTQYSNSVK,NGLRYQNKL,nd / nd / nd / nd / nd / nd,nd,0 of 18

Picked from the list: the 3 lowest averages where every replicate gave a value.

{"CDR-H1": "GFDLDEYGIS", "CDR-H2": "VIYADGRRSAYHDSVK", "CDR-H3": "GQLGGVSFV", "log10 Kd (nM) by replicate": "-0.48 / -0.40 / -0.49 / -0.19 / -0.53 / -0.70", "log10 Kd (nM), mean": "-0.47", "signal with controls": "0 of 18"}
{"CDR-H1": "GFDLNEYGIS", "CDR-H2": "VIYADGHRSFFTDTVK", "CDR-H3": "GQQAGIFNV", "log10 Kd (nM) by replicate": "0.38 / 0.80 / 0.35 / 0.88 / 0.49 / 0.55", "log10 Kd (nM), mean": "0.58", "signal with controls": "0 of 18"}
{"CDR-H1": "GFDIEEYGIS", "CDR-H2": "VIYADGDRANYDQKVK", "CDR-H3": "GTIAGTLDM", "log10 Kd (nM) by replicate": "0.53 / 0.64 / 0.70 / 0.47 / 0.43 / 0.68", "log10 Kd (nM), mean": "0.58", "signal with controls": "0 of 18"}

Empty control strains, which show no peptide, gave a signal in 1% of pairings with all heavy chain designs; the median was 2.08 and 95% of these signals were weaker than 0.84. No background was subtracted. Also given: how often the same scFv was detected with the empty control strains, with their mean in brackets.
Of ten entries with the parent sequence, four were seen in most replicates (averages 0.34 to 2.37), three in one and three in none, so single entries are noisy.
The authors' rule: three or more of the six replicates give a measured affinity, fewer mean a poor binder.